miR-122 sensor: blocks miR-122 activity in Huh7 sensor cells; Huh7 miR-122 Renilla luciferase sensor, 48 h; neutral wells = 0, positive control = 100; activation (reporter increase), % at 12.5 µM; hit rate 0.3% among 340,000;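 active = mean replicate activation score at least 90 and every replicate individually at or above 90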;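 also: higher luciferase means less miR-122 activity so hits act as miR-122 inhibitors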
Cneo AK release: causes C. neoformans cell lysis. lysis activity, % at 15 µM. adenylate kinase release luminescence, 4 h; normalised: neutral wells 0, clomiphene wells 100. hit rate 0.2% among 360,000;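 active = mean lysis activity across replicates of at least 80%, whatever share of replicates individually reach that level; inactive = mean lysis activity below 80%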
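read-out = cell lysis signal | test system = log-phase Cryptococcus neoformans yeast cells | input = cells at 5 × 10^6 per mL | medium = fresh YPD growth medium | signal = luminescent adenylate kinase detection reagent | timing = 4 h at 37 °C static, read 1 h later | dosing = single dose | controls = Clomiphene as positive lysis control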
N-glyco inh: blocks N-linked glycosylation in D54 reporter cells | reporter increase, % at 12.5 µM | D54 ERlucT glycosylation luciferase reporter, 24 h; percent of 100 nM tunicamycin response | hit rate 0.23% among 360,000;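 active = mean luciferase reporter signal, scaled so untreated is 0 and the glycosylation-blocking control 100, at or above a set limit in every replicate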;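 also: luciferase carries N-glycosylation sites so blocking glycosylation raises the light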
Statin myotox sup: protects C2C12 myotubes from simvastatin toxicity. ATP luminescence, 48 h; scaled: DMSO 0, geranylgeraniol control 100. rescue of ATP level, % at 7.49 µM. hit rate 0.78% among 330,000. AID 602340;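 active = mean ATP rescue above about 67%, or every replicate alone reaching that limit, limit read from the data, passing the limit was not always enough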;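 also: myotubes were challenged with 10 µM simvastatin during compound exposure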
UUG fidelity: modulators of start codon recognition fidelity in yeast; S. cerevisiae UUG-firefly luciferase reporter, luminescence/redox ratio; activity score, % at 18.7 µM; hit rate 0.13% among 350,000; AID 602363;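 active = replicate mean at a twofold rise or more, about +100% in these data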;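 note: firefly luciferase made from a UUG start codon reports start codon fidelity; reporter light over untreated wells divided by growth signal over untreated wells; some hits fall short of that in this replicate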
Of the large screens only hits and unclear results are named; the others gave an inactive call. A selection: hits, their analogues and other compounds. The true share with any hit is near 1.2%.

O=S(=O)(Nc1ccc(Br)cn1)c1ccc2ccccc2c1	none
C[C@@H]1CN([C@@H](C)CO)C(=O)c2cc(NS(=O)(=O)c3ccc(F)cc3)ccc2O[C@H]1CN(C)Cc1ccncc1	none (no result: N-glyco inh)
COc1ccc(/C=C/c2cccc[n+]2C)c(O)c1	none
CCN(CC)c1ccc(/C=C/c2cccc[n+]2C)c(OC)c1	N-glyco inh 28 (no result: miR-122 sensor)
CCS(CC)=NS(=O)(=O)c1ccc(NC(C)=O)cc1	Cneo AK release 123
C[C@H]1CCCCO[C@@H](CN(C)C(=O)c2ccncc2)[C@@H](C)CN([C@@H](C)CO)C(=O)c2cc(NS(=O)(=O)c3ccc(Cl)cc3)ccc2O1	none (no result: N-glyco inh, Statin myotox sup)
COc1ccc(C(=O)c2nc3c(n2O)CCCC3)cc1OC	Statin myotox sup 122
CN1[C@@H]2c3ccc(-c4ccccc4)c(=O)n3C[C@@H]2[C@@H](CO)[C@@H]1C(=O)NCCc1ccccc1	none (no result: miR-122 sensor, N-glyco inh, UUG fidelity)
O=P(OC1CCCCC1)(OC1CCCCC1)C(O)c1ccccc1 (stereo not drawn)	miR-122 sensor 147
CN(C)C(=O)[C@H]1[C@H](CO)[C@H]2Cn3c(ccc(C4=CCCCC4)c3=O)[C@@H]1N2C	none (no result: N-glyco inh, UUG fidelity)
CC(=O)N1CCN(c2nnnn2-c2ccccc2)CC1	Statin myotox sup 126
C[C@@H]1CN([C@@H](C)CO)C(=O)Cc2cc(N(C)C)ccc2O[C@H]1CN(C)Cc1ccncc1	none (no result: N-glyco inh)
COc1ccc(N2CCN(C(c3cc(OC)ccc3OC)c3nnnn3CC3CCCO3)CC2)cc1 (stereo not drawn)	Statin myotox sup 79
COc1cccc(CN(C(=O)Cc2c[nH]c3ccccc23)C(C(=O)NC2CCCCC2)c2cccs2)c1 (stereo not drawn)	miR-122 sensor 240
O=C(Nc1cc(F)ccc1F)N1C[C@H]2[C@@H](c3ccccc31)[C@H](CO)N2C(=O)c1ccccc1	none (no result: N-glyco inh)
Cc1c(Cl)cccc1Nc1nc(N)nc(CN2CCc3ccccc3C2)n1	N-glyco inh 44 (no result: Statin myotox sup)
CO[C@@H]1CN(C)C(=O)c2cc(NC(=O)Nc3cccc(Cl)c3)ccc2OC[C@H](C)NC[C@@H]1C	none (no result: miR-122 sensor, N-glyco inh, UUG fidelity)
Cc1cc(C(=O)COC(=O)C2=NNC(=O)CC2)c(C)n1-c1ccccc1	Statin myotox sup 141
O=C(Nc1cccc(NC(=O)c2ccccc2F)c1)c1ccccc1	Statin myotox sup 107
Cc1cccc(NC(=O)c2ccccc2C(=O)O)c1	Statin myotox sup 137
COC(=O)C1SCC2C(=O)N(Cc3ccc(Cl)c(Cl)c3)CC(=O)N21 (stereo not drawn)	none (no result: Statin myotox sup)
C[C@H]1CN([C@@H](C)CO)C(=O)c2cc(NC(=O)Nc3ccc4c(c3)OCO4)ccc2O[C@@H]1CN(C)S(=O)(=O)c1ccccc1	none (no result: N-glyco inh, Statin myotox sup)
CC1CC(=O)C(C(C2=C(O)CC(C)CC2=O)c2ccccc2)=C(O)C1 (stereo not drawn)	Statin myotox sup 101
COc1ccc(C2CC(C(F)(F)F)n3nc(C(=O)O)c(Cl)c3N2)cc1OC (stereo not drawn)	UUG fidelity 335
COc1ccccc1NS(=O)(=O)c1cc(NC(=S)NCCN2CCOCC2)ccc1N1CCOCC1	miR-122 sensor 217 (no result: Cneo AK release, UUG fidelity)
COc1ccccc1NS(=O)(=O)c1cc(NC(=O)/C=C/c2cccs2)ccc1N1CCOCC1	miR-122 sensor 258
COc1ccccc1NS(=O)(=O)c1cc(NC(=O)c2cccc(S(=O)(=O)N(C)C)c2)ccc1N1CCOCC1	miR-122 sensor 135 (no result: Cneo AK release, UUG fidelity)
C[C@@H](NC(=O)C[C@@H]1C=C[C@@H](NC(=O)C2CCOCC2)[C@H](CO)O1)c1ccccc1	none (no result: miR-122 sensor, N-glyco inh)
CCNC(=O)[C@H]1[C@H](CO)[C@H]2Cn3c(ccc(-c4ccc(OC)cc4)c3=O)[C@@H]1N2S(C)(=O)=O	none (no result: N-glyco inh, UUG fidelity)
C[C@H]1CN([C@@H](C)CO)C(=O)Cc2cc(NC(=O)Nc3cccc4ccccc34)ccc2O[C@H]1CN(C)S(=O)(=O)c1ccccc1	none (no result: N-glyco inh)
CCNC(=O)C[C@@H]1CC[C@@H]2[C@H](COc3ccc(NS(C)(=O)=O)cc3C(=O)N2C)O1	none (no result: N-glyco inh)
COc1ccc(OC)c2nc3c(C(=O)NCCN(C)C)cccc3nc12	N-glyco inh 91 (no result: Cneo AK release, Statin myotox sup, UUG fidelity)
CN(C)CCNC(=O)c1cccc2nc3cccc(F)c3nc12	none (no result: miR-122 sensor, Cneo AK release, Statin myotox sup, UUG fidelity)
Cc1c(Cl)cccc1NC(=S)NCCc1ccc(Cl)cc1	Cneo AK release 113
Fc1ccccc1NC(=S)NCCc1ccccc1	Statin myotox sup 156
Oc1ccccc1/C=N/NC(=S)NCCc1ccccc1	none
S=C(NCCCc1ccccc1)Nc1ccccc1	Cneo AK release 104
S=C(NCCCc1ccccc1)Nc1ccc(Cl)cc1	none (no result: miR-122 sensor, Cneo AK release, Statin myotox sup, UUG fidelity)
Fc1ccccc1NC(=S)NCCc1ccc(Cl)cc1	none
Cc1ccc(C)c(/C=N/NC(=S)NCCc2ccccc2)c1	Statin myotox sup 133
Cc1ccc(CN2CCNC(=O)C2CC(=O)NCCCn2ncc3ccccc32)o1 (stereo not drawn)	none (no result: miR-122 sensor, Cneo AK release, Statin myotox sup, UUG fidelity)
S=C(NCCc1ccc(Cl)cc1)NCc1ccccc1	Cneo AK release 114
CC(C)(CNC(=S)NCCc1ccccc1)CNC(=S)NCCc1ccccc1	miR-122 sensor 280 (no result: Statin myotox sup)
C[C@H](CO)N1C[C@H](C)[C@H](CN(C)C(=O)Nc2cccc3ccccc23)Oc2ccc(NC(=O)Cc3ccccc3)cc2C1=O	none (no result: N-glyco inh)
CC(=O)NC(c1cc(Cl)c2cccnc2c1O)C(C)C (stereo not drawn)	Statin myotox sup 81
Cc1ccc(C(c2cc(Cl)c3cccnc3c2O)N2CCN(C)CC2)cc1 (stereo not drawn)	N-glyco inh 43
CCCn1c2c(c(O)c(C(=O)NC)c1=O)CCCC2	Statin myotox sup 119
CCCn1c2c(c(O)c(C(=O)NCc3ccccc3)c1=O)CCCC2	none
O=C(c1ccccc1)c1ccc(-c2ccc(O)cc2)cc1	miR-122 sensor 92
COc1cc(C(=O)OCC#N)ccc1OCc1c(C)noc1C	N-glyco inh 31
O=C(CN(C1CCCCC1)S(=O)(=O)c1ccc(F)cc1)NCCCO	none
O=C(CN(C1CCCCC1)S(=O)(=O)c1ccc(F)cc1)Nc1ccc2c(c1)OCO2	miR-122 sensor 247
CCOc1ccc(C(C)=O)cc1COc1cccnc1[N+](=O)[O-]	N-glyco inh 30 (no result: miR-122 sensor)
COc1ccc(C(C)=O)cc1COc1cccnc1[N+](=O)[O-]	none (no result: Statin myotox sup)
COCCn1c(C)cc(C(=O)COC(=O)c2cncc(Br)c2)c1C	Statin myotox sup 98
C=CCn1cc(-c2ccccc2)cc(C#N)c1=O	Statin myotox sup 141
CCN(CC)C(=O)c1scc2c1OCCO2	Statin myotox sup 120
CN(C)CCOc1nc(-c2ccccc2)nc2c1oc1ccccc12	N-glyco inh 114 (no result: miR-122 sensor)
Cc1noc(C)c1NC(=O)Nc1ccc2c(c1)C(=O)N([C@H](C)CO)C[C@@H](C)[C@H](CN(C)C(=O)C1CCCCC1)OCCCC[C@@H](C)O2	none (no result: N-glyco inh, Statin myotox sup)
Cc1ccc(C)c(NC(=S)NC(NC(=O)Cc2cccc3ccccc23)C(Cl)(Cl)Cl)c1 (stereo not drawn)	N-glyco inh 74 (no result: miR-122 sensor)
Cc1ccc(C)c(NC(=S)NC(NC(=O)N(C)C)C(Cl)(Cl)Cl)c1 (stereo not drawn)	none

High-throughput results: PubChem BioAssay, Broad Institute
